Test results published in patent US20130281497A1, “MACROCYCLIC COMPOUNDS AND METHODS OF TREATMENT” (University of Florida Research Foundation, Inc., priority 2010, published 2013).

System: C2C12 cells
Assay: mRNA induction of osteoblastogenesis markers and BMPs by quantitative real-time PCR
Type: cell-based
Details: rhBMP-2 300 ng/ml (reference inducer), mean ± SD
Method: Primers were designed using an on-line primer design program (Table 1). (S. Rozen, H. J. Skaletsky, Methods Mol. Biol. 2000, 132, 365-386.) Total RNA was isolated using TRIzol reagent (Life Technologies, MD) according to manufacturer's protocol. The concentration and purity of total RNA were calculated by measuring absorbance at 260 and 280 nm. First strand cDNA was synthesized using 2 μg of total RNA and 1 μM of oligo-dT18 primer and Omniscript Reverse Transcriptase (Qiagen, CA). SYBR green-based quantitative PCR was performed using the Stratagene Mx3000P Real-Time PCR system and Brilliant SYBR Green Master Mix (Stratagene, CA) with 3 μl of first-strand cDNA diluted 1:50 and 20 pmole of primers, according to the manufacturer's protocols. The PCR reaction consisted of three segments. The first segment (95° C. for 10 min) activated the polymerase; the second segment included 3-step cycling (40 cycles) at 94° C. for 40 sec (denaturation), 60° C. for 40 sec (annealing), and 72° C. for 1 min (extension); the third segment was performed to generate PCR product temperature dissociation curves (‘melting curves’) at 95° C. for 1 min, 55° C. for 30 sec, 95° C. for 30 sec. All reactions were run in triplicate, and data were analyzed by the 2^−ΔΔCT method (K. J. Livak, T. D. Schmittgen, Methods 2001, 25, 402-408.). GAPDH was used as the control gene. Significance was determined by Student's t-test with GAPDH-normalized 2^−ΔΔCT values. Differences were considered significant when P<0.05.

## rhBMP-2: rhBMP-2 (300 ng/ml) was used as the reference of osteoblastogenesis inducer
  ALP mRNA level, fold change relative to the control: 11.12 ± 0.00^c fold
  BMP-2 mRNA level, fold change relative to the control: 1.45 ± 0.27^a fold
  BMP-4 mRNA level, fold change relative to the control: 1.04 ± 0.37 fold
  BMP-6 mRNA level, fold change relative to the control: 1.42 ± 0.35 fold
  BMP-7 mRNA level, fold change relative to the control: 2.85 ± 0.67^b fold
  BMP-9 mRNA level, fold change relative to the control: 2.00 ± 0.59^a fold
  OPN mRNA level, fold change relative to the control: 2.35 ± 0.41^a fold
  RUNX2 mRNA level, fold change relative to the control: 2.18 ± 0.48^a fold

Marks after values point to notes of the source that are not given here.
